Among the data in PubChem BioAssay are inhibition and potentiation, percent of control values, retold here.

Amino acid sequences for entries named in this document (tags omitted). A change or cut given only in a name is not applied to a line headed by its entry.
UniProt Q61143: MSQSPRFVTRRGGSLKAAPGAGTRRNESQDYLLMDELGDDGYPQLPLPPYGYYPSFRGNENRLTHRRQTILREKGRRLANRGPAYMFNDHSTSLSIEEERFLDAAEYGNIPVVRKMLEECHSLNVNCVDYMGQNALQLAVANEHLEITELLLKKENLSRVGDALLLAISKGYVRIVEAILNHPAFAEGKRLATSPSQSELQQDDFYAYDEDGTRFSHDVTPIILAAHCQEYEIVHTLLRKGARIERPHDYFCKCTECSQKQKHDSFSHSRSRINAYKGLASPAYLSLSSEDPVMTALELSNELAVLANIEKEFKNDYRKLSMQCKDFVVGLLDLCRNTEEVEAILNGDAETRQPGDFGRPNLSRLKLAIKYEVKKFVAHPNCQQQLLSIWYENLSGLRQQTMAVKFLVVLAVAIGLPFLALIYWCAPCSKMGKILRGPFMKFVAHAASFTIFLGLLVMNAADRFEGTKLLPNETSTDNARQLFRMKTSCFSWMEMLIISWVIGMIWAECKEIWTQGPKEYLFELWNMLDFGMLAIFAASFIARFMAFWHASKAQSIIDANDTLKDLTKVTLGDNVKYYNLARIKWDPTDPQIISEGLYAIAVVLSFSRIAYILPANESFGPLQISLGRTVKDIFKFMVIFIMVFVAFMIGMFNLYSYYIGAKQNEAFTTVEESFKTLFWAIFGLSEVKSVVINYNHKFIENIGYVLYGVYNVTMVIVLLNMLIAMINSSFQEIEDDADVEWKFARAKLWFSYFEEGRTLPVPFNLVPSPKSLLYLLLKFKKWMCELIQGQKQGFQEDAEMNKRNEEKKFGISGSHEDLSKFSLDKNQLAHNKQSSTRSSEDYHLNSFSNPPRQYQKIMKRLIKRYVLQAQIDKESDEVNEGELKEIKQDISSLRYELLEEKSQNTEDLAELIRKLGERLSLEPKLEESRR

Only a part is listed here, and it is no random draw. Activity calls are given as the source filed them.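 Rule for the calls, unless noted: active = membrane potential signal drops by more than 5 SD from the mean control signal, in both duplicate plates; inactive = the rest.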

Test [1] addresses Short transient receptor potential channel 6 (Mus musculus) (UniProt Q61143). Description: inhibition of mouse TRPC6 channel, confirmation, selectivity assay for TRPC4 inhibitor project, cell-based, HEK293, membrane potential dye, duplicate (AID 434948;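 active = active in primary screen and both duplicates, each dropping signal beyond three positive-control SD with fluorescence still positive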). The note with it: HEK293 TRPC6, membrane potential dye fluorescence; at 10 µM; active compounds read high; stimulated with maximal-effect acetylcholine. The gist of the method: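 Reagent: acetylcholine at maximal (ECmax) concentration, added after compound; system: HEK293 cells expressing mouse TRPC6 channel; read-out basis: control-normalized integrated fluorescence ratio; replicates: duplicate testing; times: 45 min RT dye load, 110 s compound, 110 s agonist read; signal: membrane potential dye fluorescence, kinetic read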

For test [2] the target is unchanged. Description: TRPC6 potentiation by TRPC4 potentiator hits, confirmation, selectivity assay for TRPC4 potentiator project, HEK293 cells, membrane potential dye, duplicate (AID 434952;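 active = compound raising the membrane signal above positive-control mean plus 3 SD in both repeats, and a primary screen hit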). The note with it: HEK293 TRPC6, membrane potential dye fluorescence; at 10 µM; active compounds read high; maximal acetylcholine added after compound.
Test [3] in a line: modulation of acetylcholine-evoked membrane potential, parental HEK293, confirmation, counter-screen for TRPC6 modulator project, cell-based, second counter-screen, membrane potential dye (AID 488926).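 Note: plate controls were acetylcholine ECmax control wells for no effect and buffer only wells for full effect.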 To be noted: parental HEK293, membrane potential dye fluorescence; at 10 µM; active compounds read high; after compound, maximal acetylcholine stimulation. Background: A counterscreen serves to expose hits that act by an unwanted route or on another target.

Turning to `CN(C)C1(CNC(=O)c2ccc(Cl)c(S(N)(=O)=O)c2)CCCCC1`, the inhibition in test [1] was inactive: 0%. Also, the potentiation, percent of control in test [2] is inactive: 0%.

With `O=C(OC1CN2CCC1CC2)C12CC3CC(CC(C3)C1)C2` (stereo not drawn), the inhibition in test [3] was active: 100%.

One may read the inhibition as the share of the control response that was lost under treatment.
